Experimental data: patent US9156811B2 (priority 2008, dated 2015)

Amino acid sequences for entries named in this document (tags omitted).
UniProt P30419, whole entry: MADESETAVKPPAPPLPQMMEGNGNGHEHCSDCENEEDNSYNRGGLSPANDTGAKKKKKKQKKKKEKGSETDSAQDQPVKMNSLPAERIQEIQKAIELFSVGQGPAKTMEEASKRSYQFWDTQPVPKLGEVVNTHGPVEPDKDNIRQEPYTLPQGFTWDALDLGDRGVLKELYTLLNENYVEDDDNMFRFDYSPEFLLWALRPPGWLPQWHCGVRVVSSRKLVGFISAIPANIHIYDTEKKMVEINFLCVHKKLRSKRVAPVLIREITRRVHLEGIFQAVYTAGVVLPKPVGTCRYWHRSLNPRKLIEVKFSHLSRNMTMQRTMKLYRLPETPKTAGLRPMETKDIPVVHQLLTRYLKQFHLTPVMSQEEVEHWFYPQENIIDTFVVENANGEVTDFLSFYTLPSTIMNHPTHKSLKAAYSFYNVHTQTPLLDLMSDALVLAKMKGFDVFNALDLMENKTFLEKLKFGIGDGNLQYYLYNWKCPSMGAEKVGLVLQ

Target: human NMT-1 (Homo sapiens (Human), UniProt P30419)
Assay: NMT enzyme inhibition scintillation proximity assay, human NMT-1
Type: biochemical
Conditions: read-out: IC50 (μM) NMT Enzyme (HuNMT-1), value in parentheses

Cc1c(N(C(F)F)S(=O)(=O)c2c(Cl)cc(Br)cc2Cl)c(CC(C)C)nn1C gave an IC50 of 1.3 µM.
